The record followed here is patent US9896481B2, “Modified mini-hepcidin peptides and methods of using thereof” (priority 2011, dated 2018).

In this assay the target is T1, ferroportin tagged at the C-terminus with green fluorescent protein (Fpn-GFP) (Mus musculus, UniProt Q9JHI9).
T1 construct: expressed in transfected cells; host or cells: ECR293/Fpn-GFP (stably transfected, ponasterone-inducible)
T1 sequence (Q9JHI9 1-570): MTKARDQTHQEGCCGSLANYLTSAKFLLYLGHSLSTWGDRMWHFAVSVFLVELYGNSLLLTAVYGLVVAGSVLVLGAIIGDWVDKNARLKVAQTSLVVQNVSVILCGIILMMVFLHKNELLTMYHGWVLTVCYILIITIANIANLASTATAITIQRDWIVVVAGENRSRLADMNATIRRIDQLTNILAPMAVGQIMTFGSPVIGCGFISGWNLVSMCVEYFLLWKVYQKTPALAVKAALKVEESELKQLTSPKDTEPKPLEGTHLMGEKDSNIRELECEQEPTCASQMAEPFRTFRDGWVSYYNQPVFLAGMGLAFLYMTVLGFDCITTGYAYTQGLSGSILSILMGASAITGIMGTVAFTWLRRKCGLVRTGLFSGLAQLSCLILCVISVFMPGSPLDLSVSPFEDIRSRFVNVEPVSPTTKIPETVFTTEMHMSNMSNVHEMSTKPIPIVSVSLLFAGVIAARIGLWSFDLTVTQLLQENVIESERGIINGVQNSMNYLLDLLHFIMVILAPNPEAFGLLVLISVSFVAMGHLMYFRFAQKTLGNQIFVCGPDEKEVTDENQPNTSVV
Nature of the assay: Flow cytometry of ferroportin-GFP degradation in ECR293/Fpn-GFP cells. The assay is classed as cell-based. On the procedure:
In vitro activity may be measured by the dose-dependent loss of fluorescence of cells engineered to display ferroportin fused to green fluorescent protein as in Nemeth et al. (2006) Blood 107:328-33. Aliquots of cells are incubated for 24 hours with graded concentrations of a reference preparation of Hep25 or a mini-hepcidin. As provided herein, the EC50 values are provided as the concentration of a given compound (e.g. peptide) that elicits 50% of the maximal loss of fluorescence generated by the reference Hep25 preparation.
Mutational studies indicate that C326, the cysteine residue at position 326 of human ferroportin, is the critical residue involved in binding hepcidin. Thus, various N-terminal fragments of Hep25 containing a thiol, i.e. Hep 4-7, Hep3-7, Hep3-8, Hep3-9, Hep1-7, Hep1-8, Hep1-9, and Hep1-10 C7A, were chemically synthesized, refolded and their activities relative to Hep25 were assayed using flow-cytometric quantitation of the ferroportin-GFP degradation, iron efflux estimation based on measurements of cellular ferritin, and radioisotopic iron efflux studies.
The activity of peptides of the present invention was measured by flow cytometry as previously described. See Nemeth et al. (2006) Blood 107:328-333, which is herein incorporated by reference. […] Cells were then trypsinized and resuspended at 1×10^6 cells/ml, and the intensity of green fluorescence was analyzed by flow cytometry. Flow cytometry was performed on FAC SCAN (fluorescence activated cell scanner) Analytic Flow Cytometer (Becton Dickinson, San Jose, Calif.) with […] version 3.3 software (Becton Dickinson). Cells not induced with ponasterone to express Fpn-GFP were used to establish a gate to exclude background fluorescence. […] For each concentration of peptide, the results were expressed as a fraction of the maximal activity (FHep25) of Hep25 (in the dose range 0.01-10 μM), according to the formula 1−((Fx−FHep25)/(Funtreated−FHep25)), where F was the mean of the gated green fluorescence and x was the peptide.
On the technique in general: In flow cytometry, cells or beads pass a laser one at a time.

[1] abbreviates: ferroportin-GFP internalization, FIG. 3.

Turning to `CC[C@H](C)[C@H](NC(=O)[C@H](CS)NC(=O)[C@@H](NC(=O)[C@@H]1CCCN1C(=O)[C@H](Cc1ccccc1)NC(=O)[C@H](Cc1c[nH]cn1)NC(=O)[C@@H](NC(=O)[C@@H](N)CC(=O)O)[C@@H](C)O)[C@@H](C)CC)C(=O)N[C@@H](Cc1ccccc1)C(N)=O` [Hep9], the “hepcidin activity relative to Hep25 (in words)” value (FIGS. 1-4) is recorded as “quite active”. Moreover, under setting [1], the “potency relative to Hep25 on a mass basis, times less potent” value is reported as “about 4 times” and the “potency relative to Hep25 on a molar basis, times less potent” value was “about 10 times”.
